Key:
Assay in all cases: kinetic table of the IgG; KD marked '*…' (bivalent IgG); method not named for this figure (SPR protocol in paragraph 207)
FZD1 CRD, Fc-tagged = target: T1, FZD1 CRD, Fc-tagged (human, UniProt Q9UP38 70-250)
T1 construct: domain: CRD; Bought; not shown: Fc tag of the purchased fusion

FZD2 CRD, Fc-tagged = target: T2, FZD2 CRD, Fc-tagged (human, UniProt Q14332 24-190)
T2 construct: domain: CRD; Bought; not shown: Fc tag of the purchased fusion

FZD7 CRD, Fc-tagged = FZD7 CRD, Fc-tagged (human, UniProt O75084 33-185)

B1: pan-FZD antibody 5019 (antibody, V domains shown)
VH: EVQLVESGGGLVQPGGSLRLSCAASGFNIGSSSIHWVRQAPGKGLEWVASIYSAFASTSYADSVKGRFTISADTSKNTAYLQMNSLRAEDTAVYYCARYHFPFGFALDYWGQGTLVTVSS
VL: DIQMTQSPSSLSASVGDRVTITCRASQSVSSAVAWYQQKPGKAPKLLIYSASSLYSGVPSRFSGSRSGTDFTLTISSLQPEDFATYYCQQGVYLFTFGQGTKVEIK
notes: also called F^P; FP
- Kd (FZD1 CRD, Fc-tagged): 0.0251 nM
- Kd (FZD2 CRD, Fc-tagged): 0.0239 nM
- Kd (FZD7 CRD, Fc-tagged): 0.0123 nM
